Experiments:
[1] = biological target: Neuronal acetylcholine receptor; alpha4/beta2 (Rattus norvegicus, UniProt P09483+P12390); assay: Inhibition of [3H]-Cytisine binding to nicotinic acetylcholine receptor alpha4-beta2 from rat cerebral cortex; type: tissue-based
[2] = biological target: Neuronal acetylcholine receptor subunit alpha-7 (Rattus norvegicus, UniProt Q05941); assay: Inhibition of [125I]alpha-bungarotoxin binding to rat nicotinic acetylcholine receptor alpha7
Method in brief: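 Membranes from Wistar rat hippocampus made by sucrose homogenisation and differential centrifugation, then resuspended in 118 mM NaCl, 4.8 mM KCl, 2.5 mM CaCl2, 1.2 mM MgCl2, 20 mM Na-HEPES pH 7.5. Incubated with [125I]-α-bungarotoxin plus compounds, 37 °C, 3 h. Bound label collected by filtration. Nonspecific binding defined with 100 µM (−)-nicotine.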

The chains behind the UniProt entries cited, without tags or fusion partners. Where a name states a change or a piece, a line headed by the entry shows the natural chain unless it says otherwise.
UniProt P09483: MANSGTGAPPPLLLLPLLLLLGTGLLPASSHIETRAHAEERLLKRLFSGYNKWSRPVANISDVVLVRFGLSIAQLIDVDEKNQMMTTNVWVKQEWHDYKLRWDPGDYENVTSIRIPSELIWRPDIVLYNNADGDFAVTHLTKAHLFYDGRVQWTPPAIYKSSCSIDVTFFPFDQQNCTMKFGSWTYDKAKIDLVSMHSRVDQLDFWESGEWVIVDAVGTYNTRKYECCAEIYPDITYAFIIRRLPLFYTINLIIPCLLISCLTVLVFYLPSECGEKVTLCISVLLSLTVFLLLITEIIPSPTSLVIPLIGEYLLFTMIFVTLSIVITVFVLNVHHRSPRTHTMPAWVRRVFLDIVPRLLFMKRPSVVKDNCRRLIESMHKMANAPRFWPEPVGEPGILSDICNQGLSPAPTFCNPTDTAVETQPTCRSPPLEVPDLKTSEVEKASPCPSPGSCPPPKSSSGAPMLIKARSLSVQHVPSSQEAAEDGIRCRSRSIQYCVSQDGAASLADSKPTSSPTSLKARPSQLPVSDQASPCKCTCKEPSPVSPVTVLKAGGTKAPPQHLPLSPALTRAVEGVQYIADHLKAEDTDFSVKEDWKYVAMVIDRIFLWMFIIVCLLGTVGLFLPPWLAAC
UniProt P12390, whole entry: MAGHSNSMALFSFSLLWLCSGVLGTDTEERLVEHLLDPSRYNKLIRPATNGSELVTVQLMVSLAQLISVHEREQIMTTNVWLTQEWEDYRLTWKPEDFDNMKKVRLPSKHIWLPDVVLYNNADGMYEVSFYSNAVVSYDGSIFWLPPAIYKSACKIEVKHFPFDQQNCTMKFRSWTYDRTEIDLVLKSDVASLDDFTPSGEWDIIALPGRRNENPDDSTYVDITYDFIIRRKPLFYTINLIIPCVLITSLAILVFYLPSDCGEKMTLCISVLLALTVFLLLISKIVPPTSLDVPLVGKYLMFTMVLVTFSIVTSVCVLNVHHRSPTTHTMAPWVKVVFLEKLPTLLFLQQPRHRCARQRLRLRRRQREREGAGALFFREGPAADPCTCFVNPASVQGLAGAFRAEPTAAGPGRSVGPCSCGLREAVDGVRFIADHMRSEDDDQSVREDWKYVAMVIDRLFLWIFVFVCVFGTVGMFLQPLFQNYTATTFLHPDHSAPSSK
UniProt Q05941, whole entry: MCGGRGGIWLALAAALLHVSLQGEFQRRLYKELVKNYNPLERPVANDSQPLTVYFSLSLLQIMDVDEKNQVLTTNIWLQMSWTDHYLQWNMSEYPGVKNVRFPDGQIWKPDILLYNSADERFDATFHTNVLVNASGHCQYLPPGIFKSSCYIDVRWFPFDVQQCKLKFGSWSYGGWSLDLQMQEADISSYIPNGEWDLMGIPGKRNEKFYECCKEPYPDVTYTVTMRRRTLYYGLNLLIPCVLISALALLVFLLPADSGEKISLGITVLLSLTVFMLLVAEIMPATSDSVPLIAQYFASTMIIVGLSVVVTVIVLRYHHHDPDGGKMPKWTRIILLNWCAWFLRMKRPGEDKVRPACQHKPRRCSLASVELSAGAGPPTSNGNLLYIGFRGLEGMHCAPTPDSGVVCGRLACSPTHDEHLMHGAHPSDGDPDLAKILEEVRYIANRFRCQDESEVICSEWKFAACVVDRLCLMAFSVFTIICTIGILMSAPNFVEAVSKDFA

## O=C1NC[C@@]2(CN3CCC2CC3)O1
[1]
  IC50: > 10000 nM

## O=C1O[C@]2(CN3CCC2CC3)CN1c1ccc2ccccc2n1
[2]
  Ki: 450 nM

— ChEMBL document CHEMBL1143582, “Discovery of the alpha7 nicotinic acetylcholine receptor agonists. (R)-3'-(5-Chlorothiophen-2-yl)spiro-1-azabicyclo[2.2.2]octane-3,5'-[1',3']oxazolidin-2'-one as a novel, potent, selective, and orally bioavailable ligand” (J Med Chem, 2005)
